# AlphaSeq binding of Ab-14 light chain variants to a spike HR2 peptide

Source: Engelhart et al. 2022 (doi:10.1038/s41597-022-01779-4), MIT Lincoln Laboratory and A-Alpha Bio; data file from the FLAb repository.

Target: peptide PDVDLGDISGINAS, taken from heptad repeat 2 (HR2) of SARS-CoV-2 spike.

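The parent was found by panning a naive human phage display library on the peptide. In library AAYL50, one, two or three CDR residues were substituted; doubles and triples were drawn at random. The assay is AlphaSeq: two haploid yeast populations carry antibody and antigen on their surface. Binding brings cells together so that they mate, and sequencing counts the barcode pairs among the diploids. Each replicate has its own calibration line, from reference interactions of the BCL2 family. Each pool was mated in three replicate cultures.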

Each scFv is VH, a 15-residue (Gly4Ser)3 linker, VL, as in the parent Ab-14, and differs from it in the CDRs of the light chain only.
VH: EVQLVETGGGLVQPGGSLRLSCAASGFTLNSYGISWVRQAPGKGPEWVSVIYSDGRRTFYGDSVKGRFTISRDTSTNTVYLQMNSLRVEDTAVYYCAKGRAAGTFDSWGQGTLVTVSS
VL: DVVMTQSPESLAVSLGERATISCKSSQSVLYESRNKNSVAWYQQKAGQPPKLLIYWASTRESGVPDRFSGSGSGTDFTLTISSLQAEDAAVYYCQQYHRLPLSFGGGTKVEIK

The parent's light chain CDRs are KSSQSVLYESRNKNSVA, WASTRES, QQYHRLPLS; each variant's own CDRs replace them letter for letter. Numbers give log10(Kd / nM), so 0 is 1 nM and 3 is 1 µM. Smaller is tighter. Averages over replicates are reported, and they cover detected replicates only. An entry "not detected" has no value in the source: the pair was not observed among the diploids in any replicate. This suggests poor binding but is not conclusive. Empty control strains, which show no peptide, gave a signal in 18% of pairings with library AAYL50; the median was 4.19 and 95% of these signals were weaker than 2.99. No background was subtracted. The control count says in how many pairings with the empty strains this scFv gave a signal.

| # | CDR-L1 | CDR-L2 | CDR-L3 | mean log10 Kd (nM) | replicates with signal | signal with controls |
|---|---|---|---|---|---|---|
| 1 | HSSYSVLYESRNKNSVA | WASTRES | QQYHRLPWS | 2.92 | 3/3 | 0/9 |
| 2 | KSSQSVLYEIRNKNSVA | WAFTRES | QQYHRLCLS | 4.05 | 1/3 | 0/9 |
| 3 | KSSQSVWYESRNKNSVA | WASTRPE | QQYHRLPLS | 1.10 | 3/3 | 1/9 |
| 4 | KSYQSVRYESRNKSSVA | WASTRES | QQYHRLPLS | 2.97 | 3/3 | 3/9 |
| 5 | MSSESVLYESRNKNSVA | QASTRES | QQYHRLPLS | 0.20 | 3/3 | 1/9 |
| 6 | KSSQSVLYESRNKNSVA | WASTRMS | KQYHKLPLS | 4.94 | 1/3 | 2/9 |
| 7 | KNSQSVLYEHRNKNSVA | WASTRES | QQYHRLPLM | not detected | 0/3 | 0/9 |
| 8 | KSSQVMLYESRNKNSVE | WASTRES | QQYHRLPLS | 4.87 | 3/3 | 5/9 |
| 9 | KSSQSVLYESRNKNSVG | WASTRWS | QQYHRLNLS | not detected | 0/3 | 0/9 |
| 10 | KSSQSVLYTSRVKNSVA | WASTRES | QQYCRLPLS | 3.24 | 3/3 | 0/9 |
| 11 | KSSDSVLYESRNKNSWA | WASTRES | QCYHRLPLS | not detected | 0/3 | 4/9 |
| 12 | KSSQSVLYESRNKNSVA | WASTRES | QQWHRLGPS | not detected | 0/3 | 1/9 |
| 13 | KSSQSVLYDSRMKNSVA | WASTRES | QQYHRLPLS | 0.58 | 3/3 | 0/9 |
| 14 | KSSQMVLYESRNKNSVA | WASTFRS | QQYHRLPLS | 2.43 | 1/3 | 0/9 |
| 15 | KSSDSVLYRSRNKNSVA | WASTRES | QQYHRLPLS | not detected | 0/3 | 0/9 |
| 16 | KSSQSVVYESRNKNSVA | WASTRES | QQYFRLPNS | 0.69 | 3/3 | 2/9 |
| 17 | KSSQSVLLESRNKNSVT | WASTRES | QQYHRLMLS | 4.70 | 2/3 | 6/9 |
| 18 | KSSQSVLYESRNKNPVA | WNSTRES | QAYHRLPLS | 3.63 | 1/3 | 1/9 |
| 19 | KSSQSVLYESRNQNSVA | RASTREK | QQYHRLPLS | 1.01 | 3/3 | 0/9 |
| 20 | KSSQSVLYESRNKNSVA | WAKVRES | QQYKRLPLS | 2.41 | 3/3 | 0/9 |
| 21 | KSSQSVLYESRNVNSVT | WASTRES | QQAHRLPLS | not detected | 0/3 | 2/9 |
| 22 | KSSQSVGYESRNKNDVA | WASTKES | QQYHRLPLS | 2.44 | 3/3 | 1/9 |
| 23 | KSSQSVLYESPNKNSHA | FASTRES | QQYHRLPLS | 4.63 | 2/3 | 1/9 |
| 24 | KSSQSVLYESRNKNSVN | WASTRES | QQYHRIPWS | not detected | 0/3 | 0/9 |
| 25 | KSSQSVLYESIWKNSLA | WASTRES | QQYHRLPLS | 2.06 | 3/3 | 0/9 |
| 26 | KSSQSGLLESYNKNSVA | WASTRES | QQYHRLPLS | 0.69 | 3/3 | 1/9 |
| 27 | KNEQSVLYESRNKNSVA | WASTRGS | QQYHRLPLS | 1.91 | 3/3 | 1/9 |
| 28 | KSSQSKLYEDRNKNSVA | WASTRES | QQYHRLPLS | 2.99 | 3/3 | 1/9 |
| 29 | KSSISVLYESRNKNSVA | WASTRES | CQYHRLPWS | not detected | 0/3 | 3/9 |
| 30 | KSSQSVVYEDRNKNSVA | WASTRNS | QQYHRLPLS | 0.81 | 3/3 | 1/9 |
| 31 | KSSQSVLYESMNKNSVA | WHSTKES | QQYHRLPLS | not detected | 0/3 | 1/9 |
| 32 | KSSQSVLYESRPKNSVA | WASTDES | QQYHRSPLS | not detected | 0/3 | 1/9 |
| 33 | KSNQSVLYISRNKCSVA | WASTRES | QQYHRLPLS | 2.83 | 1/3 | 0/9 |
| 34 | KSSQSHLYESRNKNSVA | WASTRES | QQYHRLPHS | 2.94 | 3/3 | 5/9 |
| 35 | KSSQSVLYESRNKMSVA | WASTRES | QQYQRLDLS | 1.24 | 3/3 | 1/9 |

The remaining entries, values ahead:

| # | mean log10 Kd (nM) | replicates with signal | signal with controls | CDR-L1 | CDR-L2 | CDR-L3 |
|---|---|---|---|---|---|---|
| 36 | 4.35 | 3/3 | 2/9 | KSSQSVLYESRNYNSVG | WALTRES | QQYHRLPLS |
| 37 | 5.15 | 2/3 | 3/9 | KPSQSVLYESRNQNSVD | WASTRES | QQYHRLPLS |
| 38 | not detected | 0/3 | 0/9 | KSSQSVLYESRNKNSVA | WASTREY | QQWHRLVLS |
| 39 | 1.84 | 3/3 | 1/9 | KSSQSVLNEPRNKNSVA | VASTRES | QQYHRLPLS |
| 40 | 0.11 | 3/3 | 1/9 | KSSQSVLYESWNKNSVA | HASTRES | QQYHRLILS |
| 41 | 0.95 | 3/3 | 0/9 | KSSQSVLGESRNKNSVA | WASTREI | QFYHRLPLS |
| 42 | 5.29 | 2/3 | 0/9 | KSSQSVLMESRNKNSVA | WASTRES | QQYHRQMLS |
| 43 | 2.49 | 3/3 | 1/9 | KSSQSVLYEKRNKNSVA | WASTRLS | QQYHRLPLG |
| 44 | 3.29 | 3/3 | 3/9 | KSSQSVLYRSRGKNSVA | WASTRTS | QQYHRLPLS |
| 45 | not detected | 0/3 | 1/9 | KSSSSVLYESRNKNSVC | WASTRES | IQYHRLPLS |
| 46 | not detected | 0/3 | 1/9 | TSSQIVLYESRNKNSVA | WASTRES | QQYHRLPTS |
| 47 | 3.14 | 3/3 | 6/9 | KSSQSVLYELRNKNSVA | WASTRAS | QQYRRLPLS |
| 48 | 4.21 | 2/3 | 2/9 | KSPQSVLYESRNKNSVA | WNSTRWS | QQYHRLPLS |
| 49 | 4.65 | 3/3 | 4/9 | KSSQSVLYESRNKNSVA | WAWTRES | QQYHRNPHS |
| 50 | not detected | 0/3 | 2/9 | KSSQSVLYESFNKNIVA | WASTRES | NQYHRLPLS |
| 51 | 1.69 | 3/3 | 4/9 | FSSQSVLNESRNKNSVA | WASTRES | QYYHRLPLS |
| 52 | 2.82 | 3/3 | 2/9 | SSSTSVLYESRNKNSVA | WASTRES | QQYHRLPLP |
| 53 | 4.27 | 2/3 | 3/9 | KSSMSVGYESRNKNSVA | WASTRES | QQYPRLPLS |
| 54 | not detected | 0/3 | 0/9 | MSSQSVLYESRNKNSVA | WASTRES | QAYHRLPLP |
| 55 | 2.31 | 2/3 | 1/9 | KSSQSVLYAWRNKNSVA | WMSTRES | QQYHRLPLS |
| 56 | 2.10 | 3/3 | 0/9 | KSSQSVLYESRNKNNVA | WLSTRES | QQIHRLPLS |
| 57 | 3.31 | 2/3 | 0/9 | KSSQSVLYESRNKMSVA | WASTRES | QVYHRLDLS |
| 58 | not detected | 0/3 | 0/9 | KSSQSMLYESRNKNSVA | WVSTRES | QPYHRLPLS |
| 59 | not detected | 0/3 | 1/9 | KSSQSVLYESRNKNSVA | WASTRES | QDCHRLPDS |
| 60 | 1.58 | 3/3 | 0/9 | KSSESVLYELRNKNSVA | WASTRYS | QQYHRLPLS |
| 61 | 1.33 | 3/3 | 5/9 | RSSQSVLAESRDKNSVA | WASTRES | QQYHRLPLS |
| 62 | 5.74 | 1/3 | 4/9 | KSSQSVLYEDRNKNSNA | WASTRES | QQYHRLSLS |
| 63 | 2.75 | 3/3 | 0/9 | SKSQSVLYESRNRNSVA | WASTRES | QQYHRLPLS |
| 64 | 4.45 | 2/3 | 1/9 | KSSQSVLYESRNKNSMI | WASTRTS | QQYHRLPLS |
| 65 | 5.89 | 1/3 | 4/9 | KSSQSVLYESRNKNSDA | WASTEES | QQYHRLPLS |
| 66 | not detected | 0/3 | 0/9 | KSSLSVLYESRNKNSVA | WVSTRES | QQYHDLPLS |
| 67 | 3.16 | 2/3 | 1/9 | KGSQMVLYESRNKNSVA | WASTRES | QQYHRLPLG |
| 68 | 0.51 | 3/3 | 1/9 | KSSQSVLYESRNKNSVA | YASTRES | QQYDRLPLS |
| 69 | 0.71 | 3/3 | 0/9 | KSSQSVLYESGCKNSVA | WASTRES | NQYHRLPLS |
| 70 | 3.20 | 3/3 | 3/9 | KSSQSVLYEYRNKNSVA | CASKRES | QQYHRLPLS |
| 71 | 2.60 | 3/3 | 0/9 | KSSQSVLYESANKNSVA | WASTREG | QQYDRLPLS |

Extract of 8 entries:

{"CDR-L1": "KSSQSVLYESANKNSVA", "CDR-L2": "WASTREG", "CDR-L3": "QQYDRLPLS", "mean log10 Kd (nM)": "2.60", "replicates with signal": "3/3", "signal with controls": "0/9"}
{"CDR-L1": "KSSQSVLLESRNKNSVT", "CDR-L2": "WASTRES", "CDR-L3": "QQYHRLMLS", "mean log10 Kd (nM)": "4.70", "replicates with signal": "2/3", "signal with controls": "6/9"}
{"CDR-L1": "KSSQSVLYESRNVNSVT", "CDR-L2": "WASTRES", "CDR-L3": "QQAHRLPLS", "mean log10 Kd (nM)": "not detected", "replicates with signal": "0/3", "signal with controls": "2/9"}
{"CDR-L1": "KSSQSVLGESRNKNSVA", "CDR-L2": "WASTREI", "CDR-L3": "QFYHRLPLS", "mean log10 Kd (nM)": "0.95", "replicates with signal": "3/3", "signal with controls": "0/9"}
{"CDR-L1": "SSSTSVLYESRNKNSVA", "CDR-L2": "WASTRES", "CDR-L3": "QQYHRLPLP", "mean log10 Kd (nM)": "2.82", "replicates with signal": "3/3", "signal with controls": "2/9"}
{"CDR-L1": "KSSDSVLYRSRNKNSVA", "CDR-L2": "WASTRES", "CDR-L3": "QQYHRLPLS", "mean log10 Kd (nM)": "not detected", "replicates with signal": "0/3", "signal with controls": "0/9"}
{"CDR-L1": "KSSQSVLYELRNKNSVA", "CDR-L2": "WASTRAS", "CDR-L3": "QQYRRLPLS", "mean log10 Kd (nM)": "3.14", "replicates with signal": "3/3", "signal with controls": "6/9"}
{"CDR-L1": "KSSQSVLYESRPKNSVA", "CDR-L2": "WASTDES", "CDR-L3": "QQYHRSPLS", "mean log10 Kd (nM)": "not detected", "replicates with signal": "0/3", "signal with controls": "1/9"}